Amino acid sequences for entries named in this document (tags omitted). Residues count along the entry.
UniProt Q9NZQ7, 19-238 limits assumed: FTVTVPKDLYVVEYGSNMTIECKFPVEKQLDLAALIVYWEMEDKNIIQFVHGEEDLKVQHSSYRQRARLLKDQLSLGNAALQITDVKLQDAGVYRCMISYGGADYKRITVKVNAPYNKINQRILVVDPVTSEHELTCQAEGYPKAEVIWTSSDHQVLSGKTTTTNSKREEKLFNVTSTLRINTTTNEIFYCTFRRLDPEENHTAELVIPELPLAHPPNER

According to patent US20210347785A1, “PREPARATION AND APPLICATION OF AROMATIC COMPOUND HAVING IMMUNOREGULATORY FUNCTION” (SHANGHAI ENNOVABIO PHARMACEUTICALS CO., LTD., priority 2018, published 2021):

Target: PD-1/PD-L1 (Homo sapiens, UniProt Q9NZQ7)
Assay: PD-1/PD-L1 homogeneous time-resolved fluorescence (HTRF) binding assay
Conditions: read-out: PD-L1 IC50, 665 nm/620 nm ratio
Excerpt: Test Example 1: Detect the Inhibitory Effect of the Compound to the Binding of PD-1/PD-L1 Protein
The PD-1/PD-L1 homogeneous time-resolved fluorescence method is used to detect the binding ability of the compound with PD-L1.
PD-1/PD-L1 binding assay kit (Cisbio, Cat #63ADK000CPDEC) was chosen, which contains two proteins Tag 1-PD-L1 and Tag 2-PD-1, and two antibodies Anti-Tag1-Eu^3+ and Anti-Tag2-XL 665. The principle of detection was: Anti-tag1-Eu^3+ was used as the donor of HTRF, and Anti-Tag2-XL 665 was used as the acceptor of HTRF. When Tag 1-PD-L1 interacts with Tag 2-PD-1, the added HTRF donor and the acceptor are close to each other. […] The inhibitory effect of the compound can be determined by comparing the ratio of 665 nm/620 nm. Tag 1-PD-L1 was diluted with Diluent buffer (cat #62DLBDDF) to a working concentration of 10 nM, Tag 2-PD-1 was diluted with Diluent buffer to a working concentration of 500 nM, Anti-Tag1-Eu^3+ was diluted with detection buffer (cat #62DB1FDG) at a ratio of 1:100, Anti-Tag2-XL 665 was diluted with detection buffer at a ratio of 1:20, and the compound to be detected was diluted with diluent buffer to a final concentration of 2×. […] BioTek Synergy™ Neo2 multifunctional microplate reader was used to detect so as to provide the 665 nm/620 nm ratio. […]

- IC50: < 100 nM
SMILES: COc1nc(-c2cccc(-c3cccc(Nc4nccc5sc(CNCC(=O)O)nc45)c3Cl)c2Cl)ccc1CNC[C@@H]1CCC(=O)N1 [Compound 18, (S)-((4-((2,2′-dichloro-3′-(6-methoxy-5-((((5-carbonylpyrrolidin-2-yl)methyl)amino)methyl)pyridin-2-yl)-[1,1′-biphenyl]-3-yl)amino)thiazolo[4,5-c]pyridin-2-yl)methyl)glycine]
